## Ab-14 heavy chain CDR variants: yeast mating affinities

Target peptide (SARS-CoV-2 spike, HR2 region): PDVDLGDISGINAS

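Phage display of a naive human antibody library on the peptide gave the parent. These sequences belong to a second round, designed from the earlier measurements on random variants of the parent. Group labels follow the data file (Ctrl: baseline library sampled from a position-specific scoring matrix, with some repeated check sequences; Rand: our label for a block that the file lists under HC and that is probably the random mutants of the ten best first-round binders; En: ensemble of fine-tuned language models; GP: Gaussian process model; GPLM: also part of the Gaussian process libraries; HC: hill climbing; Gen: genetic algorithm; Gibbs: Gibbs sampling; a sequence that several methods proposed may carry one label only). Affinity was read by AlphaSeq, a pooled yeast mating assay with surface-displayed partners. The frequency of each diploid, read from paired DNA barcodes, reflects how well the two displayed proteins bind. A regression on co-assayed BCL2-family reference pairs converts the normalised counts of each replicate to an apparent Kd. There are six technical replicates.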

Ab-14 is the parent antibody, in scFv form: VH, then a (GGGGS)3 linker, then VL. The light chain is unchanged in all variants.
VH: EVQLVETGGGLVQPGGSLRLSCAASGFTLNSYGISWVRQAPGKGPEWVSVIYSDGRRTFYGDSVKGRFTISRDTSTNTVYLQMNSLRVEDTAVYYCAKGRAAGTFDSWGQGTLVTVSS
VL: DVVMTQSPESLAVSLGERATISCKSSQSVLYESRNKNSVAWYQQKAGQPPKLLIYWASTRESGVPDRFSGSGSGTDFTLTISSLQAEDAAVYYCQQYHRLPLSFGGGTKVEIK

The parent's heavy chain CDRs are GFTLNSYGIS, VIYSDGRRTFYGDSVK, GRAAGTFDS; each variant's own CDRs replace them letter for letter. Scale: log10 of Kd in nM, estimated from mating counts; low values are strong binders. Averages over replicates are reported, and they cover detected replicates only. Where no diploid with the target was found in any replicate, the entry reads "not detected": below detection, most likely a poor binder, though not proof of it. The authors' rule: three or more of the six replicates give a measured affinity, fewer mean a poor binder. Background: pairings of all heavy chain designs with three empty control strains gave a value in 1% of cases (median 2.08, 5th percentile 0.84). Values in that range, when seen in few replicates, are hard to tell from nonspecific mating. For each scFv, signals with the empty controls are counted beside the result. A sequence that the file lists under several names has all its replicates pooled. A sequence measured in both rounds can read differently, since the two assays cover different ranges. Of ten entries with the parent sequence, four were seen in most replicates (averages 0.34 to 2.37), three in one and three in none, so single entries are noisy.

| # | CDR-H1 | CDR-H2 | CDR-H3 | group | mean, log10 nM | seen in | control signals |
|---|---|---|---|---|---|---|---|
| 1 | GFTLNSYGIS | VIYSDGKRTFYGDSVK | GQAAGTFDL | GPLM_Gibbs | 1.50 | 6 of 6 | 0 of 18 |
| 2 | GFDLMEYGIS | VIYADGKRRAYENKVK | GGSVRSVVI | En_Gibbs | 0.35 | 6 of 6 | 1 of 18 |
| 3 | GFELNEYGIS | VIYSDGRRTFYGDSVK | GREAGTFDS | GPLM_Gibbs | 0.26 | 6 of 6 | 0 of 18 |
| 4 | GFTLNEYGIS | VIYWDGRRTFYGDSVK | GDAAVTFDQ | Rand | not detected | 0 of 6 | 0 of 18 |
| 5 | GFTLLEYGIS | VIYSDGRRTFYGDIVK | ANAATWFDS | Ctrl | not detected | 0 of 6 | 0 of 18 |
| 6 | GFSLNMYGIS | VIYSDGRRTFYIDSVK | GEAAGTFDS | GPLM_Gen | 1.35 | 1 of 6 | 0 of 18 |
| 7 | GDSLEEYGIS | VIYADGKRKAYKNKAK | GQTAGYFDV | En_Gibbs | not detected | 0 of 6 | 0 of 18 |
| 8 | GDDLEDYGIS | VIYADGRRTAYQESVK | GLYAGMIDV | En_Gibbs | 2.40 | 5 of 6 | 1 of 18 |
| 9 | GFSLNSYGIS | VIYSDGRRTFYADSVK | GRAAGTFDD | Ctrl | 0.73 | 6 of 6 | 1 of 18 |
| 10 | GFDIEEYGIS | VIYADGVRAMYKSNFK | GKIAGTGLT | En_Gibbs | 1.04 | 1 of 6 | 0 of 18 |
| 11 | GFDIEKYGIS | VIYADGQRVAYDSSVK | GENAGNFMV | En_Gibbs | 2.17 | 2 of 6 | 0 of 18 |
| 12 | GFNLNEYGIS | VIYADGRRTFYADSVK | GNAAGTFDV | En_HC | -0.25 | 6 of 6 | 0 of 18 |
| 13 | GFDLNSYGIS | VIYSDGRRTFYGDDVK | GEAAGTFDS | GP_Gen | 0.21 | 6 of 6 | 0 of 18 |
| 14 | GFNLNQYGIS | VIYSDGRRTFYADSVK | GRAAGTFDS | GPLM_HC | 0.32 | 6 of 6 | 0 of 18 |
| 15 | GFNLNSYGIS | VIYSDGRRTFYDDSVK | GRTAGTFDS | GPLM_Gen | 0.65 | 6 of 6 | 0 of 18 |
| 16 | GFNLNSYGIS | VIYSDGLRTFYGDSVK | GTAAGTEDS | Ctrl | not detected | 0 of 6 | 0 of 18 |
| 17 | GFTLDEYGIS | VIYSDGRRTFYGDSVK | GRAAGTFDS | Ctrl | 0.08 | 6 of 6 | 1 of 18 |
| 18 | GFNLNSYGRS | VIYSDGRRTFYGDSVK | GRAAGSFPS | Ctrl | not detected | 0 of 6 | 0 of 18 |
| 19 | GFGLNSYGIS | VIYSDGRRTFYGDSVK | GKTAGTFDS | GPLM_Gibbs | 1.01 | 6 of 6 | 0 of 18 |
| 20 | GFDLNEYGIS | VIYADGIRTAYIDSVK | GNVAGTFDV | En_Gen | -0.69 | 6 of 6 | 1 of 18 |
| 21 | GFDLDEYGIS | VIYADGMRTAYVDSVK | GNVAGTFDT | En_Gen | -0.06 | 6 of 6 | 0 of 18 |
| 22 | GFELNDYGIS | VIYSDGRRTFYGDSVK | GRTAGTFDT | GPLM_Gen | 0.06 | 6 of 6 | 0 of 18 |
| 23 | GFDLNSYGIS | VIYSDGRRTEYGDSVK | GRAAGTFNS | GP_HC | not detected | 0 of 6 | 0 of 18 |
| 24 | GFSLNSYGIS | VIYSDGRRTFYQDSVK | GKTAGTFDS | GPLM_Gen | 0.25 | 6 of 6 | 0 of 18 |
| 25 | GFDLNEYGIS | VIYADGSRTAYADDVK | GQNAGTFDV | En_Gen | -0.89 | 6 of 6 | 1 of 18 |
| 26 | GFDLNEYGIS | VIYADGKRTAYTDSVK | GNTAGTFDV | En_Gen | -0.81 | 6 of 6 | 1 of 18 |
| 27 | GFDLNEYGIS | VIYADGMRTAYSDDVK | GNQAGTFDI | En_Gen | -0.38 | 6 of 6 | 0 of 18 |
| 28 | GFDLDEYGIS | VIYADGMRTYYADSVK | GETAGTFDV | En_Gen | -0.43 | 6 of 6 | 0 of 18 |
| 29 | GNVLDEYGIS | VIYADGMRTSYAQNVK | GIEGDNFMT | En_Gibbs | not detected | 0 of 6 | 1 of 18 |
| 30 | GFTLNNYGIS | VIYSDGRRTFYSDSVK | GQDAGTFDS | GP_HC | not detected | 0 of 6 | 0 of 18 |
| 31 | GFCLNEYGIS | VIYSDGRRTFYGDSVK | GRIAGTFSQ | Ctrl | not detected | 0 of 6 | 0 of 18 |

Further variants, results first:

| # | mean, log10 nM | seen in | control signals | CDR-H1 | CDR-H2 | CDR-H3 | group |
|---|---|---|---|---|---|---|---|
| 32 | 0.53 | 12 of 12 | 2 of 36 | GFTLNSYGIS | VIYSDGRRTFYSDSVK | GAAAGTFDS | Ctrl+GPLM_Gen |
| 33 | 1.24 | 6 of 6 | 2 of 18 | GFTLNSYGIS | VIYSDGKRTFYGDSVK | GRVAGTFDI | GPLM_Gibbs |
| 34 | -0.13 | 6 of 6 | 0 of 18 | GFELNSYGIS | VIYSDGKRTFYADSVK | GRTAGTFDS | GPLM_Gibbs |
| 35 | 0.76 | 6 of 6 | 0 of 18 | GFNLNSYGIS | VIYADGRRTFYGDSVK | GRAAGTFTS | GP_HC |
| 36 | not detected | 0 of 6 | 0 of 18 | GFDIEEYGIS | VIYADGRRVSYSNKVK | GQSGMIGNY | En_Gibbs |
| 37 | not detected | 0 of 6 | 1 of 18 | GFVLNSYGIS | VIYSDGRRTFYGDSVK | GRATGGFDS | Ctrl |
| 38 | 1.80 | 6 of 6 | 0 of 18 | GFSLNSYGIS | VIYSDGRRTFYIDSVK | GWTAGTFDS | GPLM_Gibbs |
| 39 | 0.52 | 5 of 6 | 1 of 18 | GFTLNSYGIS | VIYADGRRTFYGDSVK | GRASGTFDS | Ctrl |
| 40 | 0.45 | 6 of 6 | 0 of 18 | GFTLNSYGIS | VIYSDGKRTFYGDSVK | GLEAGTFDT | GP_Gibbs |
| 41 | 0.17 | 6 of 6 | 0 of 18 | GFSLNSYGIS | VIYSDGRRTVYGDSVK | GRTAGTFDS | GPLM_Gen |
| 42 | 1.76 | 6 of 6 | 0 of 18 | GFSLNSYGIS | VIYSDGRRTFYGDSVK | GKAAGTFDR | GPLM_Gen |
| 43 | not detected | 0 of 6 | 0 of 18 | GFEIQEFGIS | VIYADGIRTNYSQNVK | GTLAGTFTL | En_Gibbs |
| 44 | -1.21 | 6 of 6 | 0 of 18 | GFDLNEYGIS | VIYADGMRTFYTDSVK | GENAGTFDI | En_Gen |
| 45 | 0.07 | 6 of 6 | 0 of 18 | GFDLNEYGIS | VIYADGVRTAYSDNVK | GENAGTFDV | En_Gen |
| 46 | 0.08 | 12 of 12 | 1 of 36 | GFTLNEYGIS | VIYSDGRRTFYTDSVK | GRAAGTFDS | Ctrl+GP_HC |
| 47 | not detected | 0 of 6 | 0 of 18 | GFTLNVYGIS | VIYSDGRRTFYGDSVK | GRAAVTFDQ | Rand |
| 48 | 0.95 | 6 of 6 | 1 of 18 | GFTLLSYGIS | VIYSDGRRTFYGDSVK | GGAAGTFDS | Ctrl |
| 49 | -0.52 | 6 of 6 | 1 of 18 | GFDLDEYGIS | VIYADGKRTYYADSVK | GNNAGTFDV | En_Gen |
| 50 | not detected | 0 of 6 | 0 of 18 | KRTINDYGIS | VIYSDQRRTFYGDSVK | GRNAGTFDS | Ctrl |
| 51 | 1.12 | 6 of 6 | 1 of 18 | GFSLYEYGIS | VIYSDGRRTFYGDSVK | GRAAGTFDQ | GP_HC |
| 52 | 0.14 | 6 of 6 | 0 of 18 | GFNLNSYGIS | VIYSDGRRTFYGDQVK | GNTAGTFDS | GP_Gibbs |
| 53 | -0.02 | 6 of 6 | 0 of 18 | GFNLDEYGIS | VIYADGKRTAYADSVK | GNVAGTFDL | En_Gen |
| 54 | -0.53 | 6 of 6 | 0 of 18 | GFDLNEYGIS | VIYADGMRTFYADSVK | GSEAGTFNM | En_HC |
| 55 | 0.33 | 6 of 6 | 1 of 18 | GFSLNSYGIS | VIYSDGQRTFYGDSVK | GQTAGTFDS | GPLM_Gen |
| 56 | not detected | 0 of 6 | 0 of 18 | KFTLNSYGIS | VIYSDGRRTFYDDSVK | GREAGKFRS | Ctrl |
| 57 | -0.61 | 6 of 6 | 0 of 18 | GFDLNEYGIS | VIYADGMRTAYADDVK | GNEAGTFDM | En_Gen |
| 58 | 0.80 | 1 of 6 | 0 of 18 | GFSLNSYGIS | VIYSDGRRTFYGDMVK | GKTAGTFDR | GP_Gibbs |
| 59 | not detected | 0 of 6 | 0 of 18 | GYDLNEYGIS | VIYADGRRAAYIDDVK | DEVNDGVLV | En_Gibbs |
| 60 | 1.78 | 6 of 6 | 0 of 18 | GFTLNSYGIS | VIYSDGRKTFYDDSVK | GQTAGTFDS | GPLM_HC |
| 61 | not detected | 0 of 6 | 0 of 18 | GKDIESYGVS | VIYADGKRTAYANKFK | GSNAGSFVM | En_Gibbs |
| 62 | -0.28 | 6 of 6 | 1 of 18 | GFDLNSYGIS | VIYSDGKRTFYADSVK | GREAGTFDS | GP_Gen |

Extract of 8 entries:

| CDR-H1 | CDR-H2 | CDR-H3 | group | mean, log10 nM | seen in | control signals |
|---|---|---|---|---|---|---|
| GFTLNSYGIS | VIYSDGKRTFYGDSVK | GQAAGTFDL | GPLM_Gibbs | 1.50 | 6 of 6 | 0 of 18 |
| GFDLNSYGIS | VIYSDGKRTFYADSVK | GREAGTFDS | GP_Gen | -0.28 | 6 of 6 | 1 of 18 |
| GFDLNSYGIS | VIYSDGRRTEYGDSVK | GRAAGTFNS | GP_HC | not detected | 0 of 6 | 0 of 18 |
| GFTLNSYGIS | VIYSDGKRTFYGDSVK | GRVAGTFDI | GPLM_Gibbs | 1.24 | 6 of 6 | 2 of 18 |
| GFCLNEYGIS | VIYSDGRRTFYGDSVK | GRIAGTFSQ | Ctrl | not detected | 0 of 6 | 0 of 18 |
| GFNLNSYGIS | VIYSDGRRTFYGDQVK | GNTAGTFDS | GP_Gibbs | 0.14 | 6 of 6 | 0 of 18 |
| GFNLNSYGIS | VIYADGRRTFYGDSVK | GRAAGTFTS | GP_HC | 0.76 | 6 of 6 | 0 of 18 |
| GFTLNSYGIS | VIYADGRRTFYGDSVK | GRASGTFDS | Ctrl | 0.52 | 5 of 6 | 1 of 18 |

Source: Li et al. 2023 (doi:10.1038/s41467-023-39022-2), MIT Lincoln Laboratory and A-Alpha Bio; data file from the FLAb repository.